# Experimental data as given in ChEMBL document CHEMBL2401681 (Bioorg Med Chem Lett, 2013).
# The chains behind the UniProt entries cited, without tags or fusion partners.
# UniProt Q92731, whole entry: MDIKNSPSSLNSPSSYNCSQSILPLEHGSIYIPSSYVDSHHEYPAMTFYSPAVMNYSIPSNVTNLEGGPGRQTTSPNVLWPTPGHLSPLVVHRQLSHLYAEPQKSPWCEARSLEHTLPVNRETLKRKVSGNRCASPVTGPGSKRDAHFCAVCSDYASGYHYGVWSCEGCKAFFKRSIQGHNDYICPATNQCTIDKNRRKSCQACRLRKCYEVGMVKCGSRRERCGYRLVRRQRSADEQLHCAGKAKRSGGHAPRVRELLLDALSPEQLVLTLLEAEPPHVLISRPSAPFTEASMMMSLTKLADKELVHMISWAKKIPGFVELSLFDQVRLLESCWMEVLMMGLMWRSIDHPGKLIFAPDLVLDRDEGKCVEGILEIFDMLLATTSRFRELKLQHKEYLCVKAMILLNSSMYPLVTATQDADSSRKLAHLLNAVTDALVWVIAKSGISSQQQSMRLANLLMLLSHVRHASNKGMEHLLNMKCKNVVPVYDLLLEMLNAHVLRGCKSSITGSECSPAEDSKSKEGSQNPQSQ
# UniProt P03372, whole entry: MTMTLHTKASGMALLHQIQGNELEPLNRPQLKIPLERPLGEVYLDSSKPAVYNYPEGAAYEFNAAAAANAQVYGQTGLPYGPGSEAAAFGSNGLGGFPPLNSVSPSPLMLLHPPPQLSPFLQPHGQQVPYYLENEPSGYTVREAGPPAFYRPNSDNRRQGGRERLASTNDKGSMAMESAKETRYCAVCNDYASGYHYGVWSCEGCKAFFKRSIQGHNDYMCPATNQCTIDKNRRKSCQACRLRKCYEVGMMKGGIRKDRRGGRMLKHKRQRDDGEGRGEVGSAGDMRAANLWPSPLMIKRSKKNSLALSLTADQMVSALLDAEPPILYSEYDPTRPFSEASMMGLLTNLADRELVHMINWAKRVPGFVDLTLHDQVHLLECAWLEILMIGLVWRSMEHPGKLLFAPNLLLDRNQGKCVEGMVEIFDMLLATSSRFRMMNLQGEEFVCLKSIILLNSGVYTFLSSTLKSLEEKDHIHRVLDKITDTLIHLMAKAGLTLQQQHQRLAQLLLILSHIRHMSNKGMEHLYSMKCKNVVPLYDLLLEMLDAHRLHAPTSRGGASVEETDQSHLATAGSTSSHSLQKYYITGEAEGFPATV
# What was measured:
# Estrogen receptor beta = Estrogen receptor beta (Homo sapiens, UniProt Q92731); details: at 3 µM
# Estrogen receptor = Estrogen receptor (Homo sapiens, UniProt P03372); details: at 3 µM
inhibition (Estrogen receptor beta) [%],inhibition (Estrogen receptor) [%],SMILES
35,17,CCCc1cc(C(CC)(CC)c2ccc(O)c(CCC)c2)ccc1O
,30,CCCC[Si](CCCC)(c1ccc(O)c(C)c1)c1ccc(O)c(C)c1
14,15,CCCCC(CCCC)(c1ccc(O)c(CCC)c1)c1ccc(O)c(CCC)c1
23,38,CCCc1cc(C(CCC)(CCC)c2ccc(O)c(CCC)c2)ccc1O
